Screens as filed in PubChem.
In the library only some 1.3% were active in any assay of this set; here they are far more common.
miR-122 sensor: blocks miR-122 activity in Huh7 sensor cells; Huh7 miR-122 Renilla luciferase sensor, 48 h; neutral wells = 0, positive control = 100; activation (reporter increase), % at 12.5 µM; 340,000 tested, 0.3% active; AID 602342;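 active = mean replicate activation score at least 90 and every replicate individually at or above 90; inconclusive = only one of the two criteria met; inactive = neither criterion met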;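 also: higher luciferase means less miR-122 activity so hits act as miR-122 inhibitors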
F508del corr: correctors of CFTR F508del function in bronchial epithelial cells; CFBE cells, YFP halide quenching; stimulated with forskolin plus potentiator P3; % fluorescence drop versus neutral controls; activity (quench increase), % at 7.58 µM; 350,000 tested, 0.36% active;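 active = mean added fluorescence quench of at least 8% versus neutral control, with both replicates also reaching 8%; inconclusive = only one of the mean or replicate conditions met; inactive = mean below 8% and not both replicates reaching 8%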;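 also: cells transiently co-express mutant CFTR-F508del with the halide-sensitive YFP; corrector assay measuring rescue of mutant channel to the surface after 24 h compound exposure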
PglD inh: PglD (C. jejuni) enzyme inhibition | 360,000 tested, 0.098% active | AID 602405 | purified PglD enzyme, DTNB colorimetric CoA detection | inhibition, % at 12.5 µM; in the data active = inhibition above about 16%, passing the limit was not always enough; inconclusive = no clear call, values can overlap the other calls
Yeast UUG start: modulators of start codon recognition fidelity in yeast; S. cerevisiae UUG-firefly luciferase reporter, luminescence/redox ratio; activity score, % at 18.7 µM; 0.13% of 350,000 active;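 active = replicate mean at a twofold rise or more, about +100% in these data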;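 also: firefly luciferase made from a UUG start codon reports start codon fidelity; reporter light over untreated wells divided by growth signal over untreated wells; some hits fall short of that in this replicate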
LGR2 antag: Drosophila LGR2 receptor signaling inhibition. 380,000 tested, 0.35% active. inhibition, % at 9.99 µM. HEK293 LGR2, CRE-luciferase, bursicon-stimulated, 4 h;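 active = drop in luminescence signal, shown as inhibition above about 50% in the replicate tests, limit read from the data, passing the limit was not always enough; inconclusive = probably only some replicates passing the limit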;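 also: agonist challenge used bursicon conditioned medium at about half maximal strength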
EWS-Fli block: inhibitors of EWS/Fli oncoprotein transcriptional activity; inhibition, % at 12.6 µM; 350,000 tested, 0.67% active; A673 NR0B1-luciferase reporter, viability-normalised;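 active = mean inhibition of at least 50% after viability correction, with every replicate also passing that limit; inconclusive = mean reaches 50% but only one of two replicates passes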;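 also: firefly luciferase signal divided by Alamar Blue viability fluorescence both relative to DMSO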
* hit, by the source's call; ? = inconclusive; . = no result given; [ ] = another dose, or the depositor's remark.

Letters: A = miR-122 sensor; B = F508del corr; C = PglD inh; D = Yeast UUG start; E = LGR2 antag; F = EWS-Fli block
> COc1cccc2c1cc([N+](=O)[O-])c1c(C(=O)O)cc3c(c12)OCO3
  A: 0	B: -1	C: 1	D: -6	E: 67*	F: 33
> COc1ccc(CN2Cc3cnnn3-c3ccccc3C2C#N)cc1 (configuration not stated)
  A: 6	B: 2	C: 1	D: -22	E: 96*	F: ?
> N#CC1c2ccccc2-n2nncc2CN1Cc1cc(Cl)cc(Cl)c1 (configuration not stated)
  A: -25	B: -3	C: -2	D: -4	E: 102*	F: 62*
> Cc1c(C(=O)N2CCC3(CC2)OCCO3)sc2ncnc(N3CCc4ccccc4C3)c12
  A: -1	B: 2	C: 8	D: -4	E: 8	F: 13
> O=C(Cc1ccncc1)N1CCCCN2[C@H](CO)[C@@H](c3ccc(C#Cc4ccccc4F)cc3)[C@@H]2C1
  A: -7[16.7 µM]	B: 1	C: 2	D: 11	E: 11	F: -8
> Cc1ccc(N2C(=O)NC(=O)/C(=C/C=C/c3ccco3)C2=O)cc1
  A: .	B: .	C: .	D: .	E: 8	F: .
> CCc1ccc(N2C(=O)NC(=O)/C(=C\C=C\c3ccco3)C2=O)cc1
  A: -1	B: -4	C: -4	D: -13	E: -6	F: 71*
> CCOc1cccc(N2C(=O)CC(=O)NC2=O)c1
  A: 1	B: .	C: 0	D: -4	E: .	F: .
> CC1OC(OC2C=C3CCC4C(CCC5(C)C(c6ccc(=O)oc6)CCC45O)C3(C)CC2)C(O)C(OC2OC(CO)C(O)C(O)C2O)C1O (configuration not stated)
  A: -9	B: 4	C: .	D: .	E: 85*	F: ?
> CC1=C(O)C(=O)C=C2C1=CC=C1C2(C)CCC2(C)C3CC(C)(C(=O)O)CCC3(C)CCC12C (configuration not stated)
  A: -23	B: -3	C: .	D: .	E: .	F: 65*
> COc1ccc(CN2C(=O)NC(=O)/C(=C/c3ccoc3)C2=O)cc1
  A: -2	B: 1	C: 3	D: 1	E: -11	F: 13
> C=C1C(=O)OC2CC3(C)OC3C3OC3C3=CC(OC3=O)C12 (configuration not stated)
  A: -7	B: -8	C: 5	D: -7	E: .	F: 58*
> O=C1N[C@H](Cc2ccccc2)C(=O)N2[C@@H]3[C@H](C[C@@H]12)c1ccccc1N3OOSc1ccccc1
  A: 19	B: 1	C: 3	D: -14	E: 0	F: 13
> Cc1cccc(S(=O)(=O)N2[C@@H]3Cn4c(ccc(-c5ccc(F)cc5)c4=O)[C@H]2[C@@H](C(=O)O)[C@@H]3CO)c1
  A: .	B: .	C: .	D: .	E: 13	F: -9
> O=C1Nc2ccccc2/C1=C/c1cnc[nH]1
  A: 8	B: -1	C: .	D: .	E: 6	F: -28

Some of these compounds in order of heavy-atom count, falling:
Letters: A = miR-122 sensor; B = F508del corr; C = PglD inh; D = Yeast UUG start; E = LGR2 antag; F = EWS-Fli block
> Cc1cccc(S(=O)(=O)N2[C@@H]3Cn4c(ccc(-c5ccc(F)cc5)c4=O)[C@H]2[C@@H](C(=O)O)[C@@H]3CO)c1
  A: .	B: .	C: .	D: .	E: 13	F: -9
> O=C1N[C@H](Cc2ccccc2)C(=O)N2[C@@H]3[C@H](C[C@@H]12)c1ccccc1N3OOSc1ccccc1
  A: 19	B: 1	C: 3	D: -14	E: 0	F: 13
> C=C1C(=O)OC2CC3(C)OC3C3OC3C3=CC(OC3=O)C12 (configuration not stated)
  A: -7	B: -8	C: 5	D: -7	E: .	F: 58*

Going on with the list.
Letters: A = miR-122 sensor; B = F508del corr; C = PglD inh; D = Yeast UUG start; E = LGR2 antag; F = EWS-Fli block
> COc1ccc2c(c1)/C(=C/c1cnc[nH]1)C(=O)N2
  A: 9	B: .	C: -2	D: -11	E: 95*	F: -28
> COc1ccccc1CNCCc1ccc(F)cc1
  A: -5	B: -1	C: -2	D: -16	E: 19	F: 0
> O=C1NC2C(O)C(O)C(O)C(O)C2c2cc3c(c(O)c21)OCO3 (configuration not stated)
  A: .	B: -1	C: .	D: .	E: 103*	F: 56*
> O=C1NC2C(=CC(O)C(O)C2O)c2cc3c(c(O)c21)OCO3 (configuration not stated)
  A: -8	B: -1	C: .	D: .	E: 106*	F: 54*
> COc1ccc(CNC(=O)CCC(=O)N2C[C@H]3C[C@H](C2)c2cccc(=O)n2C3)cc1OC
  A: 0	B: 2	C: -2	D: -8	E: .	F: -3
> COc1ccc(C(=O)OC2CC[C@@]3(C)C4CCC5[C@]6(O)CC(O)[C@@]7(O)C(CN8CC(C)CCC8[C@@]7(C)O)[C@]6(O)C[C@@]53O[C@]24O)cc1OC (some centres not stated)
  A: 2	B: 3	C: 1	D: -11	E: 5	F: 7
> OC1(c2ccccc2)CCNC2CCCCC21 (configuration not stated)
  A: 14	B: 2	C: -1	D: -11	E: 5	F: 1
> CCCCCCn1c(O)c(C=NC2CCN(Cc3ccccc3)CC2)c(=O)[nH]c1=O
  A: .	B: .	C: 2	D: -9	E: .	F: .
> Cc1cccc(-n2c(O)c(/C=C3/C(c4ccccc4)=Nc4ccccc43)c(=O)[nH]c2=O)c1
  A: 38	B: 12*	C: .	D: .	E: -8	F: 37
> CC(C)(C)n1cc(C(=O)c2ccc3ccccc3c2O)cn1
  A: .	B: 4	C: .	D: .	E: 67*	F: -2
> CC(C)(C)n1cc(C(=O)c2ccccc2OCCCF)cn1
  A: -1	B: -2	C: 7	D: -23	E: -9	F: 0
> O=c1[nH]c2ccccc2n1C1CCN(C(c2cccc3ccccc23)c2nnnn2Cc2ccccc2)CC1 (configuration not stated)
  A: 5	B: 3	C: -2	D: -22	E: 28	F: 12
> O=c1[nH]c2ccccc2n1C1CCN(C(c2cc3ccccc3o2)c2nnnn2Cc2ccccc2)CC1 (configuration not stated)
  A: -4	B: 5	C: 3	D: -25	E: 72*	F: 16
> O=c1[nH]c2ccccc2n1C1CCN(C(CCc2ccccc2)c2nnnn2C2CCCC2)CC1 (configuration not stated)
  A: 2	B: 0	C: 3	D: -8	E: 65*	F: 28
> Cc1cccc(C)c1-n1nnnc1C(c1cc2ccccc2o1)N1CCC(n2c(=O)[nH]c3ccccc32)CC1 (configuration not stated)
  A: -4	B: -1	C: -2	D: 5	E: 78*	F: 13

(continued)
molecule	miR-122 sensor	F508del corr	PglD inh	Yeast UUG start	LGR2 antag	EWS-Fli block
c1cncc(CNC2=NCCCCC2)c1	.	.	-8	-12	.	.
ClCCN(CCCl)c1ccc(-n2cnc3c(Cl)ncnc32)cc1	21	-7	-2	5	22	55*
NC(Cc1ccc(O)cc1)C(=O)NN=Cc1ccc(N(CCCl)CCCl)cc1 (configuration not stated)	5	1	3	-8	24	57*
N[C@@H](Cc1ccc(N(CCCl)CCCl)cc1)C(=O)O	-1	2	11	-9	-23	35
COc1cccc2c1C(=O)c1c(O)c3c(c(O)c1C2=O)CC(O)(C(C)=NO)CC3OC1CC(N)C(O)C(C)O1 (configuration not stated)	-4	1	.	.	63*	38
O=c1[nH]c(=O)n(C2CCCCC2)c(O)c1/C=N/N1CCCCC1c1cccnc1 (configuration not stated)	.	0	3	-9	10	-4
O=c1[nH]c(=O)n(-c2cccc3ccccc23)c(O)c1/C=N/N1CCCCC1c1cccnc1 (configuration not stated)	-2	8.0*	-19	-4	-32	-7
O=C(C1CC1)N1C[C@@H]2N[C@H](C1)[C@@H]2c1ccc(-c2ccncc2)cc1	.	-4	.	.	65*	80*
C/C=C(\C)C(=O)N[C@@H](c1ccccc1)[C@@H](O)C(=O)O[C@H]1C[C@@]2(O)[C@@H](OC(=O)c3ccccc3)C3[C@](C)(C(=O)[C@H](OC(C)=O)C(=C1C)C2(C)C)[C@H](O)C[C@H]1OC[C@@]31OC(C)=O (some centres not stated)	4	6	1	-2	.	58*
